Laboratory results taken from publication PMC11447181 (Nature Communications, 2024).

Amino acid sequences for entries named in this document (tags omitted). Chains listed by the source or under a name are the forms on record and can include a tag or linker.
UniProt Q9BZV2, with tags, fused parts or gaps: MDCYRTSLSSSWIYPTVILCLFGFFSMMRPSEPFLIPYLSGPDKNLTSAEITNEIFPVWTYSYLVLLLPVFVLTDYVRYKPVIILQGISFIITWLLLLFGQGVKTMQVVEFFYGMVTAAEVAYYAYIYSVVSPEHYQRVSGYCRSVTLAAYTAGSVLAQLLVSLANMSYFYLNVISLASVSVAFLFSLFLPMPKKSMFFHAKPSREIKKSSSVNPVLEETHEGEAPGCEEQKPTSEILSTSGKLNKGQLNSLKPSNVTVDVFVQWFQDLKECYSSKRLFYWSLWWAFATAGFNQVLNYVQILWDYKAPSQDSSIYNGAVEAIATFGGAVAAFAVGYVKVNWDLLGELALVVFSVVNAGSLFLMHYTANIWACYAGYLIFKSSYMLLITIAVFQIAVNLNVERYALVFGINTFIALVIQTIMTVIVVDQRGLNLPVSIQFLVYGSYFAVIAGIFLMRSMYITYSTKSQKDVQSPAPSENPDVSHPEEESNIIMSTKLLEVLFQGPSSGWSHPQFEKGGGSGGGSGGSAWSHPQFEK

How the values were obtained:
[1] = biological target: T1, hSLC19A3-wt overexpressed in Expi293F cells (Homo sapiens, UniProt Q9BZV2); assay: Mass spectrometry-based cellular thiamine-d3 uptake assay; format: cell-based; settings: 200 μM compound, 2 μM thiamine-d3, 5 min, n = 3
T1 construct: full-length, wildtype human SLC19A3; expressed in transfected cells; host or cells: Expi293F

hSLC19A3-wt = hSLC19A3-wt (Homo sapiens, UniProt Q9BZV2); assay: nanoDSF thermal shift assay / apparent binding affinity, wildtype transporter; settings: thermal shift screen at 20 μM and 200 μM compound

With `CNCCC(Oc1ccc(C(F)(F)F)cc1)c1ccccc1` (centres unmarked) [fluoxetine] the “inhibition of thiamine uptake through hSLC19A3, in words” value [1] was “only citalopram interferes with thiamine uptake” and the “thermal shift / interaction with hSLC19A3, in words” value (hSLC19A3-wt) was “also interact with hSLC19A3”.
